Reference: PubChem BioAssay AID602244 (Sanford-Burnham Center for Chemical Genomics, 2012)
Only a part is listed here, and it is no random draw. Calls of active or inactive are those of the source. Cut-off read from the data, not from the text of the source: active = inhibition above about 34% (passing the limit was not always enough); inactive = the rest.

Sequences of proteins named here, by UniProt entry; tags and fusion partners are left off. A change or cut given only in a name is not applied to a line headed by its entry.
UniProt O00574: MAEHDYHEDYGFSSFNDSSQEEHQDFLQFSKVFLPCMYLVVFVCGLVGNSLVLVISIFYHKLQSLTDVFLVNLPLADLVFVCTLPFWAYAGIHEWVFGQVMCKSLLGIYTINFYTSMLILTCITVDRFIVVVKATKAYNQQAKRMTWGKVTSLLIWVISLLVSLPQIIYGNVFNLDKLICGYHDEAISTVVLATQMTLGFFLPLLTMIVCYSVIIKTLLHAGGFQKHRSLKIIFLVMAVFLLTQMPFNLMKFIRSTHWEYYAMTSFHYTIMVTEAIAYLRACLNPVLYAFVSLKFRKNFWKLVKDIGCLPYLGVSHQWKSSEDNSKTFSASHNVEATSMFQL

Each compound was assayed against C-X-C chemokine receptor type 6 (Homo sapiens) (UniProt O00574) (assay: blockade of CXCL16-induced CXCR6 beta-arrestin recruitment – cell-based, luminescence, CHO-K1 PathHunter, 1536-well, primary screen (AID 602244;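 note: antagonist mode with CXCL16 agonist at 10 nM final; 0% = 10 nM CXCL16 with DMSO and 100% = unstimulated wells without agonist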)). Conditions: at 20 µM, hits give high values.
For `CC(=O)Nc1ccc([As](=O)(O)O)c(O)c1`, the inhibition was inactive: -1.2%.
With `CCOc1ccc(C2=NCC(CBr)S2)cc1` (configuration not stated) the inhibition was inactive: 2.2%.
With `O=P1(Nc2nc3ccc(Cl)cc3s2)COc2ccccc2O1` (configuration not stated) the inhibition was inactive: 0.4%.
With `CC(C)(C)C(=O)NC(Sc1ccccc1)C(Cl)(Cl)Cl` (configuration not stated) the inhibition was inactive: 10.4%.
In the case of `CCc1cc(O)c([N+](=O)[O-])c(C)c1[N+](=O)[O-]`, the inhibition is reported as inactive: 7.9%.
In the case of `O=P(Nc1nccs1)(c1ccccc1)c1ccccc1`, the inhibition is reported as inactive: -2.8%.
For `CC(C)C(=O)NC(Sc1ccccc1)C(Cl)(Cl)Cl` (configuration not stated), the inhibition was inactive: 2.5%.
With `c1nnnn1CCn1cnnn1` the inhibition was inactive: -11.9%.
`O=[As](O)(c1ccccc1)c1ccc(O)cc1` was tested, and the inhibition was inactive: 2.5%.
`O=[N+]([O-])c1ncn(CCn2cnc([N+](=O)[O-])n2)n1` was tested, and the inhibition was inactive: -11.2%.
In the case of `CC(=O)NC(SC(=S)N(C)C)C(Cl)(Cl)Cl` (configuration not stated), the inhibition is reported as inactive: 17%.
In the case of `O=[N+]([O-])c1ccc(O)c(/C=N/Nc2ccc([N+](=O)[O-])cc2[N+](=O)[O-])c1`, the inhibition is reported as inactive: 31.5%.
In the case of `O=C(OC1CN2CCC1CC2)c1cccc(Cl)c1` (configuration not stated), the inhibition is reported as inactive: 0.5%.
`Nc1ccc([As](=O)(O)c2ccc([N+](=O)[O-])cc2)cc1` was tested, and the inhibition was inactive: 6.7%.
With `C(Cc1nn[nH]n1)Cc1nn[nH]n1` the inhibition was inactive: -4.2%.
`CN(C)C1(CNC(=O)c2ccc(Cl)c(S(N)(=O)=O)c2)CCCCC1` was tested, and the inhibition was inactive: -6%.
For `O=P(Nc1ccccn1)(c1ccc(Br)cc1)c1ccc(Br)cc1`, the inhibition was inactive: 1.1%.
With `Nc1ccc(CCCCOc2ccccc2)cc1` the inhibition was inactive: 15.6%.
In the case of `COc1ccc(N)c([N+](=O)[O-])c1[N+](=O)[O-]`, the inhibition is reported as inactive: 14.2%.
With `C[C@H]1OP(=O)(Oc2ccccc2)[C@H](O)[C@H](O)[C@H]1N=[N+]=[N-]` (some centres not stated) the inhibition was inactive: -1.6%.
In the case of `O=P(Nc1nc2ccccc2s1)(c1ccccc1)c1ccccc1`, the inhibition is reported as inactive: -1.3%.
`Cc1ccc(S(=O)(=O)N(CCCN)CCCc2c(C)nc(N)[nH]c2=O)cc1` was tested, and the inhibition was inactive: 22.1%.
With `O=P1(Nc2ncccn2)COc2ccccc2OC1` the inhibition was inactive: -2.5%.
For `Nc1cccc([As](=O)(O)c2ccccc2)c1`, the inhibition was inactive: -2%.
In the case of `NS(=O)(=O)c1cccc(NC(=O)COC(=O)C(O)(c2ccccc2)c2ccccc2)c1`, the inhibition is reported as inactive: -4.6%.
`O=P1(Nc2ccc(Br)cn2)COc2ccccc2OC1` was tested, and the inhibition was inactive: -12%.
`O=[As](O)(c1cccs1)c1cccs1` was tested, and the inhibition was inactive: 4.7%.
With `Cc1ccc(OCC(=O)OC2CN3CCC2CC3)cc1` (configuration not stated) the inhibition was inactive: -8.5%.
`Cc1ccc(C(=O)OC2CN3CCC2CC3)cc1` (configuration not stated) was tested, and the inhibition was inactive: 4%.
With `CC1CCC(C(C)C)C(OP(=O)(Nc2ccccn2)c2ccccc2)C1` (configuration not stated) the inhibition was inactive: 9.3%.
`Cc1nn(-c2ccccc2)c2c1P(=O)(N1CCOCC1)N(C)C(c1ccccc1)=N2` (configuration not stated) was tested, and the inhibition was inactive: -6.8%.
In the case of `CN(C)C1(CNC(=O)c2ccc(S(C)(=O)=O)cc2)CCCCC1`, the inhibition is reported as inactive: -0.4%.
In the case of `CCCC1OP(=O)(Nc2ccccc2)OCC1CC` (configuration not stated), the inhibition is reported as inactive: -1.2%.
With `O=C(/C=C/c1ccccc1)OC1CN2CCC1CC2` (configuration not stated) the inhibition was inactive: -19.1%.
For `COc1ccccc1CNC(=O)COC(=O)C(O)(c1ccccc1)c1ccccc1`, the inhibition was inactive: 8.6%.
For `CN(C(=O)Cc1ccc(Cl)c(Cl)c1)[C@@H]1CCCC[C@H]1N1CCCC1`, the inhibition was inactive: 0.6%.
With `CC(C)/C=N\N=C(\N)N[N+](=O)[O-]` the inhibition was inactive: 4.7%.
For `CC1(CBr)Cn2c(nc3ccccc3c2=O)S1` (configuration not stated), the inhibition was inactive: 5.5%.
With `CCOP(=O)(NC(=NC(C)c1ccccc1)NC(C)c1ccccc1)OCC` (configuration not stated) the inhibition was inactive: 1.2%.
In the case of `CCC1=CC2Cc3nc4ccc(Cl)cc4c(N)c3C(C1)C2` (configuration not stated), the inhibition is reported as inactive: 0.1%.
In the case of `O=P1(Nc2ccccn2)COc2ccccc2OC1`, the inhibition is reported as inactive: 3.3%.
For `CN(CCCl)Cc1cc(Cl)c(NC2=NCCN2)c(Cl)c1`, the inhibition was inactive: 4.5%.
For `CCOP(=O)(Nc1ccc(C)cn1)OCC`, the inhibition was inactive: 8.6%.
`CC(C)(C)C(=O)NC(Sc1ncccn1)C(Cl)(Cl)Cl` (configuration not stated) was tested, and the inhibition was inactive: -1.4%.
With `Clc1n[nH]nc1-c1nn[nH][15n]1` the inhibition was inactive: -5.8%.
`O=P1(N(CCCl)CCCl)NCCC(C(F)(F)F)O1` (configuration not stated) was tested, and the inhibition was inactive: -5.9%.
`Nc1cccc2c([As](=O)(O)O)cccc12` was tested, and the inhibition was inactive: -9%.
With `Cc1ccc(NCCc2c([N+](=O)[O-])cc([N+](=O)[O-])cc2[N+](=O)[O-])cc1` the inhibition was inactive: 8.3%.
For `CCCOP(=S)(Nc1nc(N)cc(=O)[nH]1)OCCC`, the inhibition was inactive: 2%.
With `CCOP(=O)(Nc1cccc2ccccc12)OCC` the inhibition was inactive: 0.8%.
`COc1cc(C2NCCC3(OCCO3)C2(C)C)cc(OC)c1OC` (configuration not stated) was tested, and the inhibition was inactive: 2.1%.
With `O=C(OC1CN2CCC1CC2)c1ccc(Cl)cc1` (configuration not stated) the inhibition was inactive: 1.2%.
For `CS(=O)(=O)c1ccc(Cl)c(NC(=O)COC(=O)C(O)(c2ccccc2)c2ccccc2)c1`, the inhibition was inactive: 1.4%.
In the case of `COc1cc(C(=O)NCC2(N3CCOCC3)CCCCC2)cc(Cl)c1OC(C)C`, the inhibition is reported as inactive: 1.9%.
In the case of `O=[As](O)(O)c1cccnc1`, the inhibition is reported as inactive: -2%.
`O=[As](O)(c1cccc(O)c1)c1cccc(O)c1` was tested, and the inhibition was inactive: -2%.
`Cc1cccc(OCC(=O)OC2CN3CCC2CC3)c1` (configuration not stated) was tested, and the inhibition was inactive: -1.7%.
`NC(=O)Nc1ccc([As](=O)(O)O)cc1` was tested, and the inhibition was inactive: 4.6%.
For `CN(C(=O)Cc1ccccc1)[C@@H]1CC[C@]2(CCCO2)C[C@H]1N1CCCC1`, the inhibition was inactive: -6.6%.
With `CCOP1(=S)c2c(C)nn(CCC#N)c2N=C(c2ccc(F)cc2)N1C` (configuration not stated) the inhibition was inactive: 2.8%.
`N#CCCN(C(=O)COC(=O)C(O)(c1ccccc1)c1ccccc1)c1ccc(F)cc1` was tested, and the inhibition was inactive: 4.7%.
For `CN(C(=O)Cc1ccc(Cl)c(Cl)c1)[C@H]1CC[C@@]2(CCCO2)C[C@@H]1N1CCCC1`, the inhibition was inactive: -3.1%.
With `CN(C)C(=O)c1cc([N+](=O)[O-])cc2c1-c1c(cc([N+](=O)[O-])cc1[N+](=O)[O-])C2=O` the inhibition was active: 30.8%.
`O=[N+]([O-])c1ccc2c(c1)nnn2O` was tested, and the inhibition was inactive: 5.2%.
In the case of `O=P(Nc1nccs1)(c1ccccc1)c1nc2ccccc2s1` (configuration not stated), the inhibition is reported as inactive: -10.2%.
`O=P(Nc1nccs1)(Oc1ccccc1)Oc1ccccc1` was tested, and the inhibition was inactive: 1.6%.
For `CCOP1(=S)c2c(C)nn(CCC#N)c2N=C(c2ccccc2F)N1C` (configuration not stated), the inhibition was inactive: -5.4%.
In the case of `CS(=O)(=O)c1cc([N+](=O)[O-])c2no[n+]([O-])c2c1`, the inhibition is reported as inactive: 6.5%.
For `O=C(O)COc1ccc([As](=O)(O)O)cc1[N+](=O)[O-]`, the inhibition was inactive: 1.8%.
`Nc1ccccc1[As](=O)(O)c1ccccc1` was tested, and the inhibition was inactive: -4.2%.
`ClCCSc1nnc(-c2cccnc2)o1` was tested, and the inhibition was inactive: 5.7%.
For `CC(C)c1ccc(OP(=O)(Nc2ccccn2)Oc2ccccc2F)cc1` (configuration not stated), the inhibition was inactive: 4.2%.
With `COC(=O)C1(C)COP(=O)(N2CCCCCC2)OC1` (configuration not stated) the inhibition was inactive: -3%.
In the case of `O=[N+]([O-])c1cc([N+](=O)[O-])c(-c2ccn[nH]2)s1`, the inhibition is reported as inactive: -14.9%.
In the case of `O=C(OC1CN2CCC1CC2)c1cccc2[nH]cnc12` (configuration not stated), the inhibition is reported as inactive: 2.2%.
For `CCN(CC)C(=S)SC(NC=O)C(Cl)(Cl)Cl` (configuration not stated), the inhibition was inactive: 7.2%.
In the case of `CC(C)NC(=O)NP(=O)(Oc1ccccc1)Oc1ccccc1`, the inhibition is reported as inactive: -1.1%.
For `COc1cc(C(=O)NCC2(N3CCOCC3)CCCCC2)ccc1OCC(C)C`, the inhibition was inactive: 4.9%.
`O=[N+]([O-])c1ccc(-c2cc([N+](=O)[O-])c(O)c([N+](=O)[O-])c2)cc1` was tested, and the inhibition was inactive: 21.2%.
For `O=[As](O)(c1ccc(O)cc1)c1ccccc1O`, the inhibition was inactive: -1.9%.
For `C[As](=O)(O)c1cccc(C(=O)O)c1`, the inhibition was inactive: -2.9%.
For `Cc1ccc(OP(=O)(Nc2ccc([N+](=O)[O-])cn2)Oc2ccc(C)cc2)cc1`, the inhibition was inactive: 17.1%.
With `[N-]=[N+]=NC1CCCCC1NC(=O)c1cc([N+](=O)[O-])cc([N+](=O)[O-])c1` (configuration not stated) the inhibition was inactive: -21%.
With `Cc1ccc2nc3c(c(C)c2c1)CC(C(Cl)Cl)S3` (configuration not stated) the inhibition was inactive: 2.9%.
With `O=[N+]([O-])c1cc(Oc2ccc([N+](=O)[O-])cc2C(F)(F)F)cc([N+](=O)[O-])c1` the inhibition was inactive: -3%.
With `COc1ccc(N/C(=N/P(=O)(N2CCOCC2)N2CCOCC2)N2CCOCC2)cc1` the inhibition was inactive: -12.6%.
In the case of `Cc1c2c(nc3ccccc13)SC(C(Cl)Cl)C2` (configuration not stated), the inhibition is reported as inactive: -11.2%.
With `Cc1cc(=O)[nH]c(N[N+](=O)[O-])n1` the inhibition was inactive: -3.7%.
`O=C(OC1CN2CCC1CC2)C12CC3CC(CC(C3)C1)C2` (configuration not stated) was tested, and the inhibition was inactive: -10.4%.
In the case of `O=P1(N(CCCl)CCCl)Nc2ccccc2N1`, the inhibition is reported as inactive: -2%.
With `O=P1(N(CCCl)CCCl)OCCCN1CCCl` (configuration not stated) the inhibition was inactive: 0.1%.
`COc1cc(I)ccc1[As](=O)(O)O` was tested, and the inhibition was inactive: -5.6%.
With `COc1ccc2nc(NP(=O)(c3ccccc3)c3ccccc3)sc2c1` the inhibition was inactive: 0.3%.
`CSc1ccc(Nc2c([N+](=O)[O-])cc([N+](=O)[O-])cc2[N+](=O)[O-])cc1` was tested, and the inhibition was active: 47.6%.
In the case of `O=C(OC1CN2CCC1CC2)c1cccc([N+](=O)[O-])c1` (configuration not stated), the inhibition is reported as inactive: 2.4%.
`CCOC(=O)c1ccc(NC(=O)C(C)(CCl)SC)cc1` (configuration not stated) was tested, and the inhibition was inactive: -1.3%.
In the case of `CCC(C)N(CC(C)C)C(=S)SC(NC(C)=O)C(Cl)(Cl)Cl` (configuration not stated), the inhibition is reported as inactive: 25.3%.
For `COC(=O)C1(C)COP(=O)(N2CCCC2)OC1` (configuration not stated), the inhibition was inactive: 0.1%.
`COP1(=S)c2c(C)nn(CCC#N)c2N=C(c2ccc(F)cc2)N1C` (configuration not stated) was tested, and the inhibition was inactive: 5.5%.
With `O=C(O)C(=O)c1ccc(N(CCCl)CCCl)cc1` the inhibition was inactive: 2.8%.
For `O=C(Nc1ccncc1[N+](=O)[O-])c1ccc([N+](=O)[O-])cc1[N+](=O)[O-]`, the inhibition was inactive: -1.6%.
In the case of `O=C(COc1ccccc1)OC1CN2CCC1CC2` (configuration not stated), the inhibition is reported as inactive: 7.8%.
In the case of `CCOC(=O)Nc1cccc([As](=O)(O)O)c1`, the inhibition is reported as inactive: 2.7%.
For `Cc1cc(SC(NC=O)C(Cl)(Cl)Cl)ncn1` (configuration not stated), the inhibition was inactive: -10.8%.
In the case of `O=P(Nc1ccccn1)(c1cccc2ccccc12)c1cccc2ccccc12`, the inhibition is reported as inactive: -21.7%.
With `O=[N+]([O-])c1ccc(Nc2ccc(Oc3ccc([N+](=O)[O-])cc3[N+](=O)[O-])cc2)c([N+](=O)[O-])c1` the inhibition was inactive: -5.3%.
In the case of `O=C(O)C(O)c1ccc(N(CCCl)CCCl)cc1` (configuration not stated), the inhibition is reported as inactive: 0.3%.
In the case of `CCOC(=O)Nc1ccc([As](=O)(O)O)c(O)c1`, the inhibition is reported as inactive: -3.4%.
`CC1CCNP(=O)(N(CCCl)CCCl)O1` (configuration not stated) was tested, and the inhibition was inactive: 1.9%.
In the case of `COP(=O)(OC)N1CC1c1ccccc1` (configuration not stated), the inhibition is reported as inactive: -0.3%.
In the case of `Cc1cc(SC(NC(=O)c2ccccc2)C(Cl)(Cl)Cl)nc(C(C)C)n1` (configuration not stated), the inhibition is reported as inactive: 1.6%.
`CCCCOc1ccc(C(=O)NCC2(N3CCCCC3)CCCCC2)cc1OC` was tested, and the inhibition was inactive: 3.7%.
